In ChEMBL document CHEMBL1212821 (J Med Chem, 2010):

Biological target: T1, Kinesin-like protein KIF11 (Homo sapiens, UniProt P52732)
T1 sequence (P52732 whole entry): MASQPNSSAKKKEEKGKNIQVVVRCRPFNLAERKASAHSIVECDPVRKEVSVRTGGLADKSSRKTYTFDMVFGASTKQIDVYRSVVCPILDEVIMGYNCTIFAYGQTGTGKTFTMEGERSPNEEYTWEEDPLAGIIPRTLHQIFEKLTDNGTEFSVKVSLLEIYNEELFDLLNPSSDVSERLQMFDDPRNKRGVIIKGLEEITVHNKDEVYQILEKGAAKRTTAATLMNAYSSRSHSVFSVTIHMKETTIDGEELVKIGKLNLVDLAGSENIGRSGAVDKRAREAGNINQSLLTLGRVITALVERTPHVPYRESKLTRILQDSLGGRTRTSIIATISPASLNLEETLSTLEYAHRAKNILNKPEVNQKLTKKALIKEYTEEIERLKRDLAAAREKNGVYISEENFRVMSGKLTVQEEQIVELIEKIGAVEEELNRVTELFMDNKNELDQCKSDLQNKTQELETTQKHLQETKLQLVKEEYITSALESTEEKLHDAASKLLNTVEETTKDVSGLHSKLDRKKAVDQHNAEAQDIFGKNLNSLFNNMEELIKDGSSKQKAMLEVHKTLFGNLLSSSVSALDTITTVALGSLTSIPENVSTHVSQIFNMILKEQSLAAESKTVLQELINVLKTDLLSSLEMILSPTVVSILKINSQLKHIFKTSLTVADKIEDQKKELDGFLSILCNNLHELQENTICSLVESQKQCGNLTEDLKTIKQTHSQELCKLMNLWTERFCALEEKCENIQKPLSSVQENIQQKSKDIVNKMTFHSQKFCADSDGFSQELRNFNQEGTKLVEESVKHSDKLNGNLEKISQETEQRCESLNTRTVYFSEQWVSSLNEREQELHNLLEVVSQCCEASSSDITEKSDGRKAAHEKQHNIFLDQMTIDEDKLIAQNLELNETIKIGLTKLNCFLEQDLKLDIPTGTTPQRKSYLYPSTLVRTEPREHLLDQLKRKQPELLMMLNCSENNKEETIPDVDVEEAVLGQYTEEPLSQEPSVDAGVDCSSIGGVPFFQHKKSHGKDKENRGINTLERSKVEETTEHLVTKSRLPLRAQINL
Assay: Inhibition of human kinesin Eg5

IC50: 2 µM
Structure (SMILES): O=C1CCCC2=C1[C@H](c1cccc(O)c1)NC(=S)N2 [(S)-ENASTRON]
